{
  "source": "patent US20020004042A1",
  "about": "“Gene therapy for pulmonary edema using adenovirus vectors encoding a beta2adrenergic receptor gene” (priority 2000, published 2002)",
  "origin": "cited, not measured here",
  "tested_on": "isolated rat lungs",
  "details": "cited from earlier work",
  "data": [
    {"smiles": "CC(C)NCC(O)c1ccc(O)c(O)c1", "note": "(stereo not shown) [isoproterenol]", "values": [
      {"measurement": "increase in lung liquid clearance", "result": "> 100", "unit": "%"}
    ]}
  ]
}
